In US8202555B2, “Natural pharmaceutical preparations for increasing albumin” (priority 2009, dated 2012):

Experiment: CCl4-induced liver injury (cirrhosis with ascites) in rats: serum proteins, ascites, fibrosis markers
Type: in vivo, rat
Conditions: 0.23 mg/kg

Q: Which PCIII (CCl4 rats, serum, 4 weeks) does the source give for `COc1cc2c(c(OC)c1OC)-c1ccc(OC)c(=O)cc1[C@@H](NC(C)=O)CC2` [Colchicine, colchicine] here?
A: The PCIII was 17.3 ± 4.2 ng/mL.

Q: What about the HA (rat, in vivo) of the same compound?
A: The HA was 172.9 ± 47.7 ng/mL.

Q: And the LN (rat, in vivo)?
A: The LN was 43.2 ± 13.8 ng/mL.

Q: And the TP (rat, in vivo)?
A: The TP was 55.2 ± 3.9 g/L.
